Results reported in patent US3984415A, “1-Nitrophenylpyrido [2,3-d] pyrimidine-2,4(1H,3H)-diones” (Hisamitsu Pharmaceutical Co., Inc., priority 1973, dated 1976).

Test system: dd-strain male mice
Settings: i.p., 72 hours

Q: Which “acute toxicity (lethal dose)” value does the source give for `Cc1ccccc1-n1c(C)nc2ccccc2c1=O` [methaqualone, reference compound] here?
A: Its value is 300 to 1000 mg/kg.
